Source: PubChem (several laboratories)
Pemphigus Ab inh: inhibitors of pemphigus antibody binding to human desmoglein-3 | P32926 | DSG3-coupled beads, scFv-anti-DSG3-GFP binding, flow cytometry; active compounds read low | binding (percent of control), % at 10 µM | hit rate 0.48% among 310,000;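 active = binding more than 3 SD below its plate's average and above zero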;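 also: hits lower antibody fragment binding to DSG3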
Rce1 inh: blocks yeast Ras-converting enzyme; Q03530; yeast membranes, quenched prenylated peptide cleavage fluorescence; calls only; hit rate 0.27% among 290,000;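 active = fall in fluorescence gain of 50% or more versus controls, with final raw signal at or below 3038400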
TbMetRS inhib: blocks T. brucei methionyl-tRNA synthetase activity; inhibition, % at 11.9 µM; hit rate 0.4% among 360,000; purified T. brucei MetRS, ATP depletion, Kinase-Glo luminescence;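 active = inhibition above a per-plate cutoff of the control wells' mean inhibition plus 3 SD, cut at about 5.5% in these data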
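Assay system: T. brucei methionyl-tRNA synthetase, purified | Medium: HEPES buffer with MgCl2, KCl, DTT, spermine, BSA, pyrophosphatase | Compound: 11.9 µM single point | Incubation: 15 min enzyme-compound preincubation, 2 h reaction, 10 min detection, 25 °C | Measured by: Kinase-Glo luciferase luminescence reporting remaining unconsumed ATP | Measure: % inhibition normalized to control-well medians | Replication: Singlicate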
Arrestin-AP2 inh: human beta-arrestin and AP2 interaction inhibition. hit rate 0.31% among 340,000. inhibition, % at 10 µM. FITC-arrestin peptide / GST-AP2 beads, flow cytometry; AP2 beta2 appendage carries R879A mutation;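 active = inhibition above a set limit, near 3 SD of compounds lacking own fluorescence, cut at about 54% in these data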
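Measured by: flow cytometry, FL1 (488/535 nm); Material: AP2 appendage R879A on GSH beads; Evaluation: percent response; Timing: pre-incubation 12 min, peptide binding 1 h, room temperature; Also added: 50 nM FITC-arrestin peptide; Medium: PBS with 0.05% Tween 20 and 0.1% BSA.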
Yeast UUG start-1: modulators of start codon recognition fidelity in yeast; AID 602363; activity score, % at 18.7 µM; S. cerevisiae UUG-firefly luciferase reporter, luminescence/redox ratio; actives 0.13% (n = 350,000);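 active = replicate mean at a twofold rise or more, about +100% in these data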;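 note: firefly luciferase made from a UUG start codon reports start codon fidelity; reporter light over untreated wells divided by growth signal over untreated wells; some hits fall short of that in this replicate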
Arr-AP2 CP1: blocks beta-arrestin peptide binding to human AP2 | shares compounds with Arrestin-AP2 inh | GST-AP2 beads, FITC arrestin peptide binding, flow cytometry; GST-fused beta2-adaptin appendage, R879A mutant | inhibition, % at 10 µM | hit rate 2% among 1,300 | AID 504908;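 active = inhibition above a set limit, roughly 3 SD of non-fluorescent compound noise, cut at about 38% in these data; inactive = inhibition at or below that limit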;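 also: loss of bead fluorescence from 50 nM FITC arrestin peptide bound to appendage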
GST-FITC bead: counter-screen for beta-arrestin AP2 inhibitors: GST-GSH bead binding. shares compounds with Arrestin-AP2 inh. GST-fluorescein binding to GSH beads, fluorescence. inhibition, % at 10 µM. hit rate 2% among 1,300. AID 588338;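 active = inhibition above 50%, about 3 SD of the inhibition seen with non-fluorescent compounds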;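 also: fluorescein maleimide labelled GST captured on 4 micron glutathione beads; higher means more loss of bead fluorescence from quenching or blocked binding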
Yeast UUG start-2: yeast start codon fidelity modulation | shares compounds with Yeast UUG start-1 | S. cerevisiae UUG-start firefly luciferase, luminescence, 4 h; 100% means double the DMSO signal | activation, % at 38 µM | 540 tested, under 10 active | AID 652061;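 active = signal increase whose fitted curve reaches an absolute level of 40 at a concentration under 10 µM; inactive = activity opposite to the expected increase, or the rest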
A number is an active result. Compounds with a hit are over-represented: about 1.2% of the library has one in this group of screens.

Screening N#Cc1cccc(C(c2nnnn2C2CCCC2)N2CCC(Cc3ccccc3)CC2)c1 (stereo not given) returned Pemphigus Ab inh inactive, Rce1 inh inactive, TbMetRS inhib inactive, Arrestin-AP2 inh 69, Yeast UUG start-1 inactive, Arr-AP2 CP1 inactive and GST-FITC bead inactive.
Screening N#Cc1ccc(C(c2nnnn2C2CCCC2)N2CCC(Cc3ccccc3)CC2)cc1 (stereo not given) returned Pemphigus Ab inh inactive, Rce1 inh inactive, TbMetRS inhib inactive, Arrestin-AP2 inh inactive and Yeast UUG start-1 inactive.
Screening COc1ccc(NC(=O)c2noc(C(C)C)c2[N+](=O)[O-])cc1 returned Pemphigus Ab inh inactive, Rce1 inh inactive, TbMetRS inhib inactive, Arrestin-AP2 inh inactive, Yeast UUG start-1 528 and Yeast UUG start-2 inactive.
Screening C[C@@H]1CCCCO[C@H](CN(C)S(=O)(=O)c2ccc(Cl)cc2)[C@H](C)CN([C@@H](C)CO)C(=O)c2cc(NC(=O)CCCN(C)C)ccc2O1 returned Yeast UUG start-1 inactive.
Screening CCCN(CC(=O)Nc1ccccc1C)C(=O)Cc1cccs1 returned TbMetRS inhib inactive, Arrestin-AP2 inh inactive and Yeast UUG start-1 inactive.
For CCCN(CC(=O)Nc1ccccc1C)C(=O)/C=C/c1cccs1 the results were Pemphigus Ab inh inactive, Rce1 inh inactive, TbMetRS inhib inactive, Arrestin-AP2 inh inactive, Yeast UUG start-1 active and Yeast UUG start-2 inactive.
COc1ccccc1NC(=O)N[C@H]1CC[C@@H](CCNS(=O)(=O)c2ccc(Cl)cc2)O[C@@H]1CO was read as Yeast UUG start-1 inactive.
For CS(=O)(=O)N1CCCCN2[C@H](C1)[C@H](c1ccc(C#Cc3ccccn3)cc1)[C@@H]2CO the results were Yeast UUG start-1 inactive.
`CCOC(=O)NNC(=O)C12CC3CC(CC(C3)C1)C2` gave Pemphigus Ab inh inactive, Rce1 inh inactive, TbMetRS inhib inactive, Arrestin-AP2 inh inactive, Yeast UUG start-1 489 and Yeast UUG start-2 inactive.
Cc1ccccc1-c1ccc([C@H]2[C@@H](CO)N3CCCCN(C(=O)Nc4ccc(F)cc4)C[C@H]23)cc1 was read as Yeast UUG start-1 inactive.
For COc1cc(C(C#N)N2N=C(c3ccccc3)CC2c2ccccc2)ccc1O (stereo not given) the results were Pemphigus Ab inh inactive, Rce1 inh inactive, TbMetRS inhib inactive, Arrestin-AP2 inh inactive and Yeast UUG start-1 inactive.
Screening COc1ccc(C(C#N)N2CCC(c3ccccc3)=N2)cc1 (stereo not given) returned Pemphigus Ab inh inactive, Rce1 inh inactive, TbMetRS inhib inactive, Arrestin-AP2 inh inactive, Yeast UUG start-1 183 and Yeast UUG start-2 inactive.
Screening O=[N+]([O-])c1cc(C(F)(F)F)ccc1Oc1cccnc1[N+](=O)[O-] returned Pemphigus Ab inh inactive, Rce1 inh inactive, TbMetRS inhib inactive, Arrestin-AP2 inh inactive, Yeast UUG start-1 190 and Yeast UUG start-2 inactive.
Screening O=C(Nc1ccc(F)cc1)c1ccccc1Oc1ccc(C(F)(F)F)cc1[N+](=O)[O-] returned Pemphigus Ab inh inactive, Rce1 inh inactive, TbMetRS inhib inactive and Arrestin-AP2 inh inactive.
For Cc1ccc(OCCCCn2c(CO)nc3ccccc32)cc1 the results were Rce1 inh inactive, TbMetRS inhib inactive, Arrestin-AP2 inh inactive, Yeast UUG start-1 130 and Yeast UUG start-2 inactive.
Screening CO[C@@H]1CN(C)C(=O)c2cc(NC(=O)C3CC3)ccc2OC[C@@H](C)N(Cc2cccc(F)c2)C[C@H]1C returned Yeast UUG start-1 inactive.
Cn1nccc1-c1ccc(C(=O)Nc2cccc(NS(C)(=O)=O)c2)c2occc12 was read as TbMetRS inhib inactive and Yeast UUG start-1 inactive.
For CS(=O)(=O)Nc1cccc(NC(=O)c2ccc(-n3ccnc3)c3ccoc23)c1 the results were TbMetRS inhib inactive, Yeast UUG start-1 115 and Yeast UUG start-2 inactive.
O=C(NCC1CC1)c1ccc(-n2ccnc2)c2ccoc12 was read as TbMetRS inhib inactive, Yeast UUG start-1 163 and Yeast UUG start-2 inactive.
Screening COCCn1c(C)cc(C(=O)CSc2nnc(-c3cccnc3)n2-c2ccccc2F)c1C returned Rce1 inh inactive, TbMetRS inhib inactive, Arrestin-AP2 inh inactive and Yeast UUG start-1 inactive.
Screening Cc1ccccc1-n1c(SCC(=O)c2cc(C)n(C)c2C)nnc1-c1cccnc1 returned Pemphigus Ab inh inactive, Rce1 inh inactive, TbMetRS inhib inactive, Arrestin-AP2 inh inactive and Yeast UUG start-2 inactive.
`O=C(Nc1ccccc1)NC1(c2cn(CC(=O)N3CCN(c4ccccc4)CC3)nn2)CCCCC1` gave Yeast UUG start-1 124 and Yeast UUG start-2 inactive.
O=C(O)CSc1nnc(-c2ccc(Cl)cc2)n1-c1ccccc1 was read as Pemphigus Ab inh inactive, Rce1 inh inactive, TbMetRS inhib inactive, Arrestin-AP2 inh inactive, Yeast UUG start-1 124 and Yeast UUG start-2 inactive.
Screening COCCCN1C(=O)[C@@]2(Cc3ccccc31)c1ccccc1C(=O)N(Cc1ccccc1)[C@H]2c1ccc(CO)cc1 returned Yeast UUG start-1 169 and Yeast UUG start-2 inactive.
`CN(C)CCCN1C(=O)[C@@]2(Cc3ccccc31)c1ccccc1C(=O)N(Cc1ccccc1C(F)(F)F)[C@H]2c1ccc(CO)cc1` gave Yeast UUG start-1 173 and Yeast UUG start-2 inactive.
For COCC(=O)N1CCN(c2ccc([N+](=O)[O-])cc2)CC1 the results were Pemphigus Ab inh inactive, Rce1 inh inactive, TbMetRS inhib inactive, Arrestin-AP2 inh inactive, Yeast UUG start-1 671 and Yeast UUG start-2 inactive.
`O=C(Nc1cccc(Cl)c1)N[C@H]1CC[C@@H](CCNC(=O)C2CCC2)O[C@@H]1CO` gave Yeast UUG start-1 inactive.
Screening Cc1c(P(=O)(c2ccccc2)c2ccccc2)c2ccccc2n1C returned TbMetRS inhib inactive, Yeast UUG start-1 173 and Yeast UUG start-2 inactive.
For CO[C@H]1CN(C)C(=O)c2ccc(NC(=O)c3nc4ccccc4s3)cc2OC[C@@H](C)N(Cc2ccncc2)C[C@H]1C the results were Yeast UUG start-1 140 and Yeast UUG start-2 inactive.
C[C@@H]1CN([C@@H](C)CO)C(=O)c2cc(NC(=O)CCC(F)(F)F)ccc2O[C@H]1CN(C)C(=O)Nc1ccccc1 was read as Yeast UUG start-1 inactive.
`COc1cc(OC)cc(C(=O)Nc2cccc(NC(=O)c3cccs3)c2)c1` gave Pemphigus Ab inh inactive, TbMetRS inhib inactive, Yeast UUG start-1 124 and Yeast UUG start-2 inactive.
Screening C/C(=N\NC(=O)CC1N=C(Cc2ccccc2)NNC1=O)c1ccc(C)cc1 (stereo not given) returned Pemphigus Ab inh inactive, Rce1 inh inactive, TbMetRS inhib inactive, Arrestin-AP2 inh inactive, Yeast UUG start-1 372 and Yeast UUG start-2 inactive.
